US12041939B2, “Enzyme-loaded pollen-mimicking microparticles for organophosphate detoxification of insect pollinators” (priority 2020, dated 2024)

Test system: bumblebee GI tract
Test: fluorescent tracking of digested PIMs in bumblebee GI tracts
Assay type: in vivo, Bombus impatiens
Procedure: FIGS. 4A-4B. Tracking of digested PIMs by fluorescent imaging of bumblebee GI tracts. […] Microparticle morphology was clearly visible and microparticles were successfully drawn into the midgut (n=3; relatively brighter background at 1 and 12 h was probably due to protein leakage during digestion).
To understand the protective properties and stability of PIMs, bees were fed PIMs loaded with a FITC-labelled protein, human serum albumin (HSA-PIMs). Fluorescent imaging confirmed almost complete extraction of PIMs out of the crop stomach by 1 hour and their stability throughout digestion for 12 hours. This versatile, scalable, low-cost detoxification strategy can act as a precautionary or remedial measure for managed pollinators when pollinating in areas of organophosphate application, to address the issue of pollinator exposures.
In vivo characterizations of PIMs. […] This is significant because OPs are often found in high quantities in pollen, which may be held in the posterior section of the ventriculus for digestion for up to 12 h or more. The degree of fluorescence was not able to be quantified because FITC fluorescence is pH dependent; the presence of microparticles would have altered stomach pH to the point where fluorescence readings would have been inaccurate.

In the case of “free FITC-HSA: FITC-labelled human serum albumin, not encapsulated”, the “GI distribution at 1 hour” value (1 hour after 30 min feeding) is reported as “a large amount was observed in crop stomach” and the “GI distribution at 4 hours” value (4 hours) is reported as “most of the fluorescence was located in the ventriculus”.
